From US11197828B2, “Solid oral dosage form of lipophilic compounds” (SOLURAL PHARMA APS, priority 2014, dated 2021)
Marks after values point to notes of the source that are not given here.

Details: oral 75 mg paclitaxel equivalents/animal, fasted male beagle dogs (N = 4)

Substance: paclitaxel undecanoate
- AUC0-t(parent)/AUC0-t(prodrug) (conversion prodrug to parent): 1.48%
- AUC0-t of paclitaxel (parent): 24.3 ng·h/mL
- AUC0-t of prodrug: 1778^b) hr * ng/mL
- AUC0-∞ of paclitaxel (parent): 52.0 ng·h/mL
- AUC0-∞ of prodrug: 1882^c) hr * ng/mL
- Cmax of paclitaxel (parent): 2.26 ng/mL
- Cmax of prodrug: 422^a) ng/mL
- Tmax of paclitaxel (parent): 8.00 h
- Tmax of prodrug: 2.00 h
- t1/2 of paclitaxel (parent): 19.6 h
- t1/2 of prodrug: 6.44 h
